Laboratory results taken from patent publication US20200291127A1, “ANTIBODIES AND METHODS OF USE THEREOF” (AbeXXa Biologics, Inc., priority 2020, published 2020).

The chains behind the UniProt entries cited, without tags or fusion partners. Residues count along the entry.
UniProt P13747, 22-305: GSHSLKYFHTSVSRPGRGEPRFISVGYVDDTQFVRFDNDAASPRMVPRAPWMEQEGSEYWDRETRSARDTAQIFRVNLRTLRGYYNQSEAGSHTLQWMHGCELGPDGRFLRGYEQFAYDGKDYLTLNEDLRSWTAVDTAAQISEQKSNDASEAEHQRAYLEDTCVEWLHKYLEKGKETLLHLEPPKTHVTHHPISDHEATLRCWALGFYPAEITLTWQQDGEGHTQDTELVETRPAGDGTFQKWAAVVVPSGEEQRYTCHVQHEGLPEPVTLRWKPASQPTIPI

Molecular target: HLA-E*0103 (Homo sapiens, UniProt P13747)
Experiment: HLA-E peptide refolding into monomer complexes
Type: biochemical

## SLLMWITQV
  refolding of HLA-E*0103/peptide: successfully refold HLA-E*0103/peptide into stable monomer complexes
